# Rows were chosen to be rich in hits. Some 0.43% of all compounds tested hit in one or more screens of this group.
# GIV-Gai inh: inhibitors of GIV GBA-motif binding to rat Galpha-i3; P08753; Galpha-i3/FITC-GIV peptide fluorescence polarization, 90 min; stronger effect = lower value; scaled: aluminum fluoride 0%, vehicle 100%; percent of control (FP), % (no concentration beside the values); actives 0.42% (n = 210,000); AID 1224905;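 active means replicate mean at 85% of control or lower, very high polarization wells dropped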;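 further: wells of about 15 µL received 100 nL stock; the first replicate is given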
# HCMV NEC inh: inhibitors of HCMV UL50-UL53 interaction, biochemical, HTRF; HCMV UL50-UL53 nuclear egress complex (human cytomegalovirus); normalized percent inhibition; inhibition, % (no concentration beside the values); 190,000 compounds, 0.15% hits; in the data active = inhibition above about 27%, passing the limit was not always enough
# GIV Gai FP conf: inhibitors of GIV peptide binding to Galpha-i3, confirmation, biochemical, fluorescence polarization, FITC-GIV peptide, rat Galphai3; fluorescence polarization, mP at 100 µM; 580 compounds, 38% hits; shares compounds with GIV-Gai inh; hits give low values; AID 1259350, 2017;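 active = inhibition score of 15 or more, meaning 100 minus mean polarization as percent of control over three replicates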;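 also: lower mP means peptide displaced from Galphai3 so more inhibition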
# GIV Gai AS conf: inhibitors of GIV binding to Galpha-i3, confirmation, orthogonal assay for GIV-Galpha-i inhibitor project, biochemical, AlphaScreen, His-GIV, GST-Galphai3; purified proteins, 90 min; hits give low values; AlphaScreen counts at 100 µM; shares compounds with GIV-Gai inh; 580 compounds, 39% hits; AID 1259351, 2017;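 active = inhibition score at or above a set limit, where the score is 100 minus the three-replicate mean percent of control signal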
# Active calls of the source: *; / = not tested or not shown.
# Key to letters: A = GIV-Gai inh; B = HCMV NEC inh; C = GIV Gai FP conf; D = GIV Gai AS conf
molecule: CN(C)c1ccc(-c2nnc3sc(-c4ccncc4)nn23)cc1
  A = 106.0 | B = -63.3 | C = / | D = /
molecule: Nc1cccc2c1C(=O)N(CCO)C2=O
  A = 74.8* | B = -65.1 | C = 55.4* | D = 50751
molecule: Nc1cccc2c1C(=O)N(CC(=O)N1CCc3ccccc31)C2=O
  A = / | B = -10.5 | C = / | D = /
molecule: Cc1nn(-c2ccc(Cl)cc2)c2sc(C(=O)NC3CCCCC3)cc12
  A = 101.2 | B = / | C = / | D = /
molecule: CCOC(=O)c1cc(-c2ccc(Cl)cc2)nc2c1c(=O)[nH]c(=O)n2CC(C)C
  A = / | B = -26.7 | C = / | D = /
molecule: COc1ccc(C2Nc3ccccc3-c3nnc(SC)nc3O2)cc1C (stereo not drawn)
  A = 36.0* | B = -36.8 | C = 81.5 | D = 27274
molecule: CCCSc1nnc2c(n1)OC(c1cccs1)Nc1ccccc1-2 (stereo not drawn)
  A = 102.7 | B = -30.9 | C = / | D = /
molecule: COc1cc(C2Nc3ccccc3-c3nnc(SC)nc3O2)cc(Br)c1O (stereo not drawn)
  A = 105.2 | B = -50.9 | C = / | D = /
molecule: CSc1nnc2c(n1)OC(c1cccs1)Nc1ccccc1-2 (stereo not drawn)
  A = 53.0* | B = -37.2 | C = 61.4 | D = 27085*
molecule: NS(=O)(=O)c1ccc(CCNc2ncnc3c2c(-c2ccccc2)cn3-c2ccc(Cl)cc2)cc1
  A = 110.7 | B = / | C = / | D = /
molecule: CCCc1nc(-c2cc3ccccc3nc2N2CCN(C)CC2)no1
  A = 109.6 | B = -9.0 | C = / | D = /
molecule: O=C(CSc1nc(-c2ccccc2)cs1)N1CCN(S(=O)(=O)c2ccccc2)CC1
  A = / | B = -23.5 | C = / | D = /
molecule: O=C(CSc1nc(-c2ccccc2)cs1)N1CCOCC1
  A = 89.6 | B = -2.5 | C = 73.1 | D = 49138
molecule: COc1cc(C2C3=C(CC(C)(C)CC3=O)NC3=C2C(=O)CC(C)(C)C3)ccc1OCc1ccc(Cl)cc1
  A = 116.3 | B = / | C = / | D = /
molecule: CCOc1ccc2nc(NCCNC(=O)COc3ccccc3)c(C#N)cc2c1
  A = 106.0 | B = -17.9 | C = / | D = /
molecule: CCCS(=O)(=O)N1CCCC(C(=O)NC(C)C)C1 (stereo not drawn)
  A = 107.1 | B = -31.0 | C = / | D = /
molecule: C=CCNC(=O)C1CCCN(S(=O)(=O)CCC)C1 (stereo not drawn)
  A = 83.6* | B = 1.1 | C = 63.9 | D = 51209
molecule: CNC(=O)CCCc1nc(-c2ccc(OC)cc2)no1
  A = 101.2 | B = -6.1 | C = / | D = /
molecule: COc1ccc(-c2noc(CCCC(=O)Nc3nccs3)n2)cc1
  A = 91.4 | B = -18.3 | C = 65.3 | D = 44685
molecule: Cc1c(C(=O)Nc2ccccn2)sc2ncnc(N3CCN(c4ccccc4)CC3)c12
  A = 105.2 | B = / | C = / | D = /

# Pulled by structure from the list above (2):
# Key to letters: A = GIV-Gai inh; B = HCMV NEC inh; C = GIV Gai FP conf; D = GIV Gai AS conf
molecule: CCOc1ccc2nc(NCCNC(=O)COc3ccccc3)c(C#N)cc2c1
  A = 106.0 | B = -17.9 | C = / | D = /
molecule: Cc1c(C(=O)Nc2ccccn2)sc2ncnc(N3CCN(c4ccccc4)CC3)c12
  A = 105.2 | B = / | C = / | D = /

# 3 entries already listed, arranged by the value under GIV Gai FP conf, falling:
compound | GIV Gai FP conf
COc1ccc(C2Nc3ccccc3-c3nnc(SC)nc3O2)cc1C (stereo not drawn) | 81.5
C=CCNC(=O)C1CCCN(S(=O)(=O)CCC)C1 (stereo not drawn) | 63.9
CSc1nnc2c(n1)OC(c1cccs1)Nc1ccccc1-2 (stereo not drawn) | 61.4

# Additional results follow:
# Key to letters: A = GIV-Gai inh; B = HCMV NEC inh; C = GIV Gai FP conf; D = GIV Gai AS conf
molecule: C=CCSc1ncc(Cl)c(C(=O)Nc2sc3c(c2C(=O)OC)CCCC3)n1
  A = 85.1* | B = -18.1 | C = 61.9 | D = 43255
molecule: C=CCSc1ncc(Cl)c(C(=O)Nc2sc3c(c2C(=O)OC)CCC3)n1
  A = 105.5 | B = 1.4 | C = / | D = /
molecule: C=CCn1c(SCc2nc3ccccc3[nH]2)nc2sc3c(c2c1=O)CCCC3
  A = 115.8 | B = / | C = / | D = /
molecule: COc1cccc(=O)c2c(C)oc(C)c12
  A = 24.9* | B = -72.7 | C = 37.2* | D = 7201*
molecule: CCOc1cc(/C=C/c2ccccc2OC)cc(=O)c2c(C)oc(C)c12
  A = 95.2 | B = / | C = / | D = /
molecule: Cc1cc2c(n1-c1ccc(C(=O)O)cc1)CCCC2
  A = 79.4* | B = 65.8* | C = 57.9* | D = 3001*
molecule: Cc1cc2c(n1-c1ccc(C(=O)N3CCN(c4ccccc4)CC3)cc1)CCCCC2
  A = 100.7 | B = / | C = / | D = /
molecule: CC(=O)OCc1ccccc1Sc1ccc(Cl)cc1C(=O)O
  A = 103.7 | B = -3.5 | C = / | D = /
molecule: CCOC(=O)/C(C#N)=C/c1ccc(-c2ccc(Cl)c(C(=O)OC)c2)o1
  A = 64.6* | B = 0.0 | C = 75.7 | D = 22310
molecule: CCOC(=O)/C(C#N)=C/c1ccc(-c2ccc(Br)cc2)o1
  A = 104.6 | B = 12.2 | C = / | D = /
molecule: Cc1nn2c(S(=O)(=O)N3CCOCC3)c(C)nc2s1
  A = 99.6 | B = / | C = / | D = /
molecule: COC(=O)Cc1c(C)c2cc3c(c(C)c2oc1=O)OCN(CCc1ccc(OC)cc1)C3
  A = 98.5 | B = -45.8 | C = / | D = /
molecule: CCc1c(C)c2cc3c(c(C)c2oc1=O)OCN(CCc1ccc(OC)c(OC)c1)C3
  A = 82.7* | B = -33.1 | C = 79.3 | D = 14061*
molecule: CC(=O)Nc1c(C)nn(-c2ccc(Cl)cc2)c1N1CCC(C(=O)NCC2CCCO2)CC1 (stereo not drawn)
  A = 112.6 | B = / | C = / | D = /
molecule: COc1ccc2c(c1)-c1c(ssc1=S)C(C)(C)N2C(=O)CSc1nccn1C
  A = 109.2 | B = / | C = / | D = /
molecule: Cc1cc(C)cc(C(=O)Nc2ccc(-c3nc4ncccc4o3)cc2)c1
  A = 82.4* | B = -39.3 | C = 81 | D = 27053
molecule: Cc1ccc(C(C)C)c(OCC(=O)Nc2cc(-c3nc4ncccc4o3)ccc2C)c1
  A = 87.9 | B = / | C = 62 | D = 43747
molecule: O=C(Nc1ccc(-c2nc3ncccc3o2)cc1)c1ccccc1
  A = 107.1 | B = / | C = / | D = /
molecule: Cc1ccc(C(C)C)c(OCC(=O)Nc2cccc(-c3nc4ncccc4o3)c2)c1
  A = 107.5 | B = -68.2 | C = / | D = /
molecule: Cc1cc(C)c2oc(-c3ccc(NC(=O)COc4ccccc4C)cc3)nc2c1
  A = 104.9 | B = -55.5 | C = / | D = /
molecule: Cc1ccc(OCC(=O)Nc2ccc(-c3nc4ccccc4o3)cc2)c(C)c1
  A = 93.4 | B = 10.7 | C = 74.5 | D = 32376
molecule: COCCn1c(C)cc(C(=O)COc2ccc3c(c2)OCO3)c1C
  A = / | B = -24.9 | C = / | D = /
molecule: O=S(=O)(NCC1CCN(Cc2ccc(Cl)cc2)CC1)c1cnc[nH]1
  A = 108.3 | B = -17.3 | C = / | D = /
molecule: CCOc1ccc(C2CNC(=O)C2)cc1 (stereo not drawn)
  A = 107.5 | B = 7.8 | C = / | D = /
molecule: CC1(C)C2([N+](=O)[O-])CN3CC1([N+](=O)[O-])CN(C2)C3c1ccc(O)cc1 (stereo not drawn)
  A = 128.1 | B = / | C = / | D = /
molecule: CC1(C)N2CC3([N+](=O)[O-])CN1CC([N+](=O)[O-])(C2)C3(C)C
  A = 92.0 | B = / | C = 64.2 | D = 45009
molecule: CC1=NN(c2ccccc2)C(=O)C1=C1SCCS1
  A = 102.6 | B = -109.4 | C = / | D = /
molecule: CC1=NN(c2ccccc2)C(=O)/C1=C1/C(=O)N(c2ccccc2)N=C1C
  A = 60.9* | B = 105.5* | C = 53* | D = 17646*
molecule: Cc1ccc(/C=C2\SC(=S)N(C(C(=O)O)C(C)C)C2=O)cc1 (stereo not drawn)
  A = 103.0 | B = / | C = / | D = /
molecule: CC(C)C(C(=O)O)N1C(=O)/C(=C/C=C/c2ccco2)SC1=S (stereo not drawn)
  A = 57.9* | B = 81.8* | C = 54.3* | D = 1448*
molecule: CC(C(=O)O)N1C(=O)/C(=C\c2ccco2)SC1=S (stereo not drawn)
  A = / | B = -62.5 | C = / | D = /
molecule: O=C(O)c1cccc(N2C(=O)/C(=C/c3ccccc3)SC2=S)c1
  A = / | B = -4.8 | C = / | D = /
molecule: CC(C(=O)O)N1C(=O)/C(=C/c2ccco2)SC1=S (stereo not drawn)
  A = 75.3* | B = -65.6 | C = 55.5* | D = 3227*
molecule: Cc1ccc(/C=C2\SC(=S)N(C(CCC(=O)O)C(=O)O)C2=O)cc1 (stereo not drawn)
  A = / | B = -67.6 | C = / | D = /
molecule: O=C(O)c1cccc(N2C(=O)/C(=C\C=C\c3ccco3)SC2=S)c1
  A = 73.5* | B = -11.4 | C = 71.2 | D = 35403
molecule: O=C(O)CCC(C(=O)O)N1C(=O)/C(=C/C=C/c2ccco2)SC1=S (stereo not drawn)
  A = 39.1* | B = 75.0* | C = 46.8* | D = 2132*
molecule: CCCCS(=O)(=O)CCC(=O)O
  A = / | B = -12.8 | C = / | D = /
molecule: COc1ccc(/C=C(\C#N)C(=O)NCc2ccco2)cc1C
  A = 102.6 | B = -64.5 | C = / | D = /
molecule: COc1ccc(C(CC(=O)NC2CCCC2)NS(=O)(=O)c2ccc(C)cc2)cc1 (stereo not drawn)
  A = 105.3 | B = / | C = / | D = /
molecule: CN1c2ccccc2N(C)C1c1ccc(O)cc1
  A = 16.2* | B = 67.8* | C = 31.4* | D = 16384*

# Screening data as filed in PubChem.
